SMILES strings stand for the structures.

The chains behind the UniProt entries cited, without tags or fusion partners.
UniProt P15428, whole entry: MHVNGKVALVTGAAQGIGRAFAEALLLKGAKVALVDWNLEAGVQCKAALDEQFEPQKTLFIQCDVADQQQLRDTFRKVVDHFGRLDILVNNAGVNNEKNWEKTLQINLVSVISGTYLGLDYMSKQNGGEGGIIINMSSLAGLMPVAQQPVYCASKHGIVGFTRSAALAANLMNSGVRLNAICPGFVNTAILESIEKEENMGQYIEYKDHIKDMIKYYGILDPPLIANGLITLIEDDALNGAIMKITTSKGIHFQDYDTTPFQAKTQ

From US20260001892A1, “COMPOUND FOR REGULATING AND CONTROLLING ACTIVITY OF 15-PGDH AND PREPARATION METHOD THEREFOR” (SCINNOHUB PHARMACEUTICAL CO., LTD., priority 2022, published 2026) come the findings set out here.

The assay has as its target 15-PGDH (Homo sapiens (Human), UniProt P15428). As to the kind of experiment: Detection of activity of 15-PGDH enzyme. The note with it: inhibitory activity against 15-PGDH enzyme; substrates β-NAD and PGF2α; fluorescence Ex/Em=340/450. As for the experimental part: • a. A solution of pH 7.5 containing 50 mM Tris-HCl, 0.01% Tween 20 was prepared with ultrapure water as a reaction buffer; • b. A 10 mM mother liquor of the compound to be tested was prepared with DMSO, and then the reaction buffer was used to dilute the mother liquor of the compound to be tested to obtain solution 1 of the compound to be tested at a concentration of 40,000 nM, and then the solution 1 of the compound to be tested was serially diluted into solutions 2-9 (or 2-12) of the compound to be tested at 9 (or 11) concentrations with a gradient difference of three-fold. 5 μL of each concentration of solutions of the compound to be tested was respectively taken and added into a 384-well plate as test wells; • c. 5 μL of the reaction buffer was then added to the blank wells of the 384-well plate as positive control and blank control wells, respectively; • d. The reaction buffer was used to prepare a 15-PGDH protein solution at a concentration of 5 ng/μL, 5 μL of the 15-PGDH protein solution was taken and added to the test wells and positive control wells, and meanwhile 5 μL of the reaction buffer was added to the blank control wells, then the plate was centrifuged at 2000 rpm for 30 seconds; • e. […] The fluorescence signal value (Ex/Em=340/450) of each well was detected continuously by using a multifunctional microplate reader. […]

Regarding `N#Cc1c(C(=O)N2CCCCC2)sc2nc(-c3cccnc3)cnc12`, the IC50 (usually the concentration at which inhibition is half-maximal) fell in the range of 10 to 20 nM.
